{
  "sequences": {"note": "By UniProt entry, the sequences of proteins in these tests, tags left out.", "UniProt P06795, whole entry": "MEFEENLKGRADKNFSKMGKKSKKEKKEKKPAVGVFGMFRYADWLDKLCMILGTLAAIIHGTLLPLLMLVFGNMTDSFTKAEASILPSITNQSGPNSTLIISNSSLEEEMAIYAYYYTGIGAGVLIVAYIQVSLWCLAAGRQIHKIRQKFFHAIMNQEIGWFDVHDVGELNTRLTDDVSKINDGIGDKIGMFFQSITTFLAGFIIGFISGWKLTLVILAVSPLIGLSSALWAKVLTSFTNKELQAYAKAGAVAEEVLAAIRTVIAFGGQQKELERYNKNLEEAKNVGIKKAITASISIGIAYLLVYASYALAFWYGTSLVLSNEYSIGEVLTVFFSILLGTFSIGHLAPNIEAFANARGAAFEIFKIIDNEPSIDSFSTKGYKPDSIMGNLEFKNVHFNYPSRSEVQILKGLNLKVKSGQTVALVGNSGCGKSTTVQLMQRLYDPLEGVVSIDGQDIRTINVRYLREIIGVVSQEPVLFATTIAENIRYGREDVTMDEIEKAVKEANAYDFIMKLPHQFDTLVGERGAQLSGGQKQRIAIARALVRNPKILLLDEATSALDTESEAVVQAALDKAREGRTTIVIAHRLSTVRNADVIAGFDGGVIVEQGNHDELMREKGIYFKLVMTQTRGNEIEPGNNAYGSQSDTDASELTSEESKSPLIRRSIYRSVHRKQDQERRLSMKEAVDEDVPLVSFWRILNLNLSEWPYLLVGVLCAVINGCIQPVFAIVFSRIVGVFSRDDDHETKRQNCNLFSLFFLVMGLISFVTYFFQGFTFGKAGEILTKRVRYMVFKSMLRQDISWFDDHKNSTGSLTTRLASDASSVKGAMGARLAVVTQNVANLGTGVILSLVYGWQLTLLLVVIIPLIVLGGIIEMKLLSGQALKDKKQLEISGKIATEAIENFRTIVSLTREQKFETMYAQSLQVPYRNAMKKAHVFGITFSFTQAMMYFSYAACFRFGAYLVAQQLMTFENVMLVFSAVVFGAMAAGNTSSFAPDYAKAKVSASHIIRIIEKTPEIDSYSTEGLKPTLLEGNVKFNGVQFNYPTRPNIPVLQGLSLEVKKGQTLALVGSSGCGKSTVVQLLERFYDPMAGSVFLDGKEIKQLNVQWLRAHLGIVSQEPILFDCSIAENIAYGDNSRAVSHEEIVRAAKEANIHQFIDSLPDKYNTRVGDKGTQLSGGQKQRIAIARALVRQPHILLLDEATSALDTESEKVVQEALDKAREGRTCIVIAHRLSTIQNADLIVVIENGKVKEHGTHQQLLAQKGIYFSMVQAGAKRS"},
  "source": "ChEMBL document CHEMBL2074434",
  "about": "“Interaction of cytochrome P450 3A inhibitors with P-glycoprotein” (J Pharmacol Exp Ther, 2002)",
  "biological_target": "ATP-dependent translocase ABCB1 (Mus musculus, UniProt P06795)",
  "assay": "TP_TRANSPORTER: increase in Calcein-AM intracellular accumulation in mdr1b-expressing LLC-PK1 cells",
  "type": "functional, cell-based",
  "data": [
    {"smiles": "CC[C@H]1OC(=O)[C@H](C)[C@@H](O[C@H]2C[C@@](C)(OC)[C@@H](O)[C@H](C)O2)[C@H](C)[C@@H](O[C@@H]2O[C@H](C)C[C@H](N(C)C)[C@H]2O)[C@](C)(O)C[C@@H](C)C(=O)[C@H](C)[C@@H](O)[C@]1(C)O", "note": "[ERYTHROMYCIN]", "values": [
      {"measurement": "Ki", "result": "> 1000", "unit": "µM"}
    ]}
  ]
}
